Reference: US20240174621A1, “METHYLQUINAZOLINONE DERIVATIVES” (Hoffmann-La Roche Inc., priority 2019, published 2024)

System: P-ERK in HCT116 cells expressing WT BRAF
Type: cell-based
Settings: HCT-116 cells; maximum P-ERK signal as percentage of highest dabrafenib signal
Excerpt: DMEM no-phenol red medium supplemented with L-glutamine was purchased from (Thermo Fisher Scientific). Fetal bovine serum (FBS) was purchased from VWR. Advanced ERK phospho-T202/Y204 kit—10,000 tests was purchased from Cisbio cat #64AERPEH. A375 and HCT116 cells were originally obtained from ATCC and banked by the Roche repository. 384-well microplates were purchased from Greiner Bio-One, 384-well, (With Lid, HiBase, Low volume cat 784-080).
A375 is a cellular cancer model expressing V600E mutated BRAF and HCT116 a cellular cancer model expressing WT BRAF. […] ERK 1,2 phosphorylation (terminal member of the phosphorylation cascade of the MAPK pathway) is hereafter reported as main readout for the activation status of the MAPK pathway. […]
The plate is then analyzed and fluorescence emission value collected through a Pherastast FSX (BMG Labtech) apparatus at […].
The obtained fluorescence values are processed according to the formula Ratio=[…]*10000 then the average of the ratio on the blank is subtracted to all values. […]
The Percentage of Maximum paradox inducing effect from dabrafenib is determined by evaluating the percentage at which the test compound induce its maximum P-ERK signal as percentage of the highest signal produced by dabrafenib within the dose range tested.

CCCS(=O)(=O)Nc1ccc(F)c(Oc2ccc3ncn(C)c(=O)c3c2)c1C#N [AR-25]
Percentage of Maximum paradox inducing effect from dabrafenib: 103%
